This is an account of results in ChEMBL document CHEMBL3612033, “Synthesis of 3,4-diaminobenzoyl derivatives as factor Xa inhibitors” (Eur J Med Chem, 2015).

This test addresses T1, Coagulation factor X (Oryctolagus cuniculus) (UniProt O19045).
T1 sequence (whole entry): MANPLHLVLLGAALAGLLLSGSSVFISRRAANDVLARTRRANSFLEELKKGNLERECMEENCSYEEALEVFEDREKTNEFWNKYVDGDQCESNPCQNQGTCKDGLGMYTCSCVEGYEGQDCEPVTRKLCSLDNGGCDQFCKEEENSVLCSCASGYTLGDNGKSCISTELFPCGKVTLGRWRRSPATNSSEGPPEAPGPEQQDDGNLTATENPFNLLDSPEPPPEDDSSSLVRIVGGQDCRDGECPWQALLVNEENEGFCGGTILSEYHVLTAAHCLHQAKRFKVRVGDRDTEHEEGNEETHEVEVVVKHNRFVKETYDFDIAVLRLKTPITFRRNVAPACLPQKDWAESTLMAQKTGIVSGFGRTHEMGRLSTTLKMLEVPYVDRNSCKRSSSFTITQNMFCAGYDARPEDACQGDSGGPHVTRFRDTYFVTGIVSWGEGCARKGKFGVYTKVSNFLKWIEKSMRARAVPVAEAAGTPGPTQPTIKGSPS
Briefly: Inhibition of F10a in rabbit plasma assessed as ratio of compound prothrombin time to vehicle control prothrombin time at 100 nM after 2 mins by automatic coagulation analyser.

For the compound `NC(=O)c1ccc(NC(=O)c2ccc(-n3ccccc3=O)cc2)c(NC(=O)c2ccc(Cl)c(Cl)c2)c1`, the Ratio came to 2.58. As to `NC(=O)c1ccc(NC(=O)c2ccc(-n3ccccc3=O)cc2)c(NC(=O)c2ccc(Br)cc2)c1`, the Ratio came to 2.14.
